{"sequences": {"note": "Protein sequences, listed by entry. Tags and fused reporters are not part of them. Lines headed by an entry give the natural chain unless they say otherwise; changes in a name come on top.", "UniProt P41145": "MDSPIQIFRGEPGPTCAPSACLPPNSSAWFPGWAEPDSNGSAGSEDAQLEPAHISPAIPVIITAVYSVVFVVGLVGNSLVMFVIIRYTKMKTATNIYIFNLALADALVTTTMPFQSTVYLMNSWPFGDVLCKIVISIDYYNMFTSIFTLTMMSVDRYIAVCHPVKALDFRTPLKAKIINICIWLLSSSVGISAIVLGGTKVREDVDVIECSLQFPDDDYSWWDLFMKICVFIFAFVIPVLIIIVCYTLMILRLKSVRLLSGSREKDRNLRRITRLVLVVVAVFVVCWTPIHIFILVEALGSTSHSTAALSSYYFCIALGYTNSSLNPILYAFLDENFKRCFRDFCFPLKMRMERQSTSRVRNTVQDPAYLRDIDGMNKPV", "UniProt P35372, whole entry, looked up": "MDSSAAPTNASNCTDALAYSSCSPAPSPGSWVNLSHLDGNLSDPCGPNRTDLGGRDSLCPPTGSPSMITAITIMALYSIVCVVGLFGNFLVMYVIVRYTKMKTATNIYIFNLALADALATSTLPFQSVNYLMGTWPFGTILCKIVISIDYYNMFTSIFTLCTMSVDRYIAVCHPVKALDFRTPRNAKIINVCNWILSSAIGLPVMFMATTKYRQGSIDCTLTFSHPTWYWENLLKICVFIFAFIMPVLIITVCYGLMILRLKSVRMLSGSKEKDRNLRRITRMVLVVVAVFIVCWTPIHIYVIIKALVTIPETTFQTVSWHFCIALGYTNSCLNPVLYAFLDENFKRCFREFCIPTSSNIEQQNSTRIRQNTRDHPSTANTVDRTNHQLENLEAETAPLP", "UniProt P41143, whole entry, looked up": "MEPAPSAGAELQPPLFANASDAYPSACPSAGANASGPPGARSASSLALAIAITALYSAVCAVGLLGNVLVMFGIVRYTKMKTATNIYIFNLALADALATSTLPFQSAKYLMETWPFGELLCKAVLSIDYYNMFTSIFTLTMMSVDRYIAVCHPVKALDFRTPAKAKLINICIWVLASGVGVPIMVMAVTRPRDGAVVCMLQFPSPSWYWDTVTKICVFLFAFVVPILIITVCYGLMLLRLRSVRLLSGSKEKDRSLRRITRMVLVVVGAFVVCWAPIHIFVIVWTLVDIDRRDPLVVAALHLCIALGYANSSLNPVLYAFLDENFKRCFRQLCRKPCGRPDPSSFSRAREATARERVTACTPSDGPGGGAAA"}, "source": "ChEMBL document CHEMBL4433209", "about": "“Novel Cyclic Biphalin Analogues by Ruthenium-Catalyzed Ring Closing Metathesis: in Vivo and in Vitro Biological Profile” (2019)", "key": {"[1]": {"biological_target": "T1, Kappa-type opioid receptor (Homo sapiens, UniProt P41145)", "experiment": "Displacement of [3H]-diprenorphine from human kappa opioid receptor expressed in CHO cell membranes incubated for 1 hr by micro beta2 scintillation counting method"}, "[2]": {"biological_target": "T1, Kappa-type opioid receptor", "experiment": "Agonist activity at human kappa opioid receptor expressed in CHO cell membranes incubated for 1 hr by [35S]GTPgammaS binding assay"}, "Mu-type opioid receptor [3]": {"biological_target": "T2, Mu-type opioid receptor (Homo sapiens, UniProt P35372)", "experiment": "Agonist activity at human mu opioid receptor expressed in CHO cell membranes incubated for 1 hr by [35S]GTPgammaS binding assay"}, "[4]": {"biological_target": "T3, Delta-type opioid receptor (Homo sapiens, UniProt P41143)", "experiment": "Displacement of [3H]-diprenorphine from human delta opioid receptor expressed in CHO cell membranes incubated for 1 hr by micro beta2 scintillation counting method"}, "Mu-type opioid receptor [5]": {"biological_target": "T2, Mu-type opioid receptor", "experiment": "Displacement of [3H]-diprenorphine from human mu opioid receptor expressed in CHO cell membranes incubated for 1 hr by micro beta2 scintillation counting method"}, "[6]": {"biological_target": "T3, Delta-type opioid receptor", "experiment": "Antagonist activity at human delta opioid receptor expressed in CHO cell membranes assessed as reduction in SNC80-induced [35S]GTPgammaS binding incubated for 1 hr"}, "Mus musculus [7]": {"system": "Mus musculus", "experiment": "Analgesic activity in CD1 mouse at 0.15 nmol, icv measured after 60 mins by hot plate test relative to control"}, "Mus musculus [8]": {"system": "Mus musculus", "experiment": "Analgesic activity in CD1 mouse at 1.5 nmol, iv measured after 45 mins by hot plate test relative to control"}}, "data": [{"smiles": "N[C@@H](Cc1ccc(O)cc1)C(=O)N[C@@H]1C/C=C/C[C@@H](NC(=O)[C@@H](N)Cc2ccc(O)cc2)C(=O)NCC(=O)N[C@@H](Cc2ccccc2)C(=O)NNC(=O)[C@H](Cc2ccccc2)NC(=O)CNC1=O", "values": [{"measurement": "Ki", "setting": "[1]", "result": 686, "unit": "nM"}, {"measurement": "EC50", "setting": "[2]", "result": 969, "unit": "nM"}, {"measurement": "EC50", "setting": "Mu-type opioid receptor [3]", "result": 17.7, "unit": "nM"}, {"measurement": "Ki", "setting": "[4]", "result": 5.2, "unit": "nM"}, {"measurement": "Ki", "setting": "Mu-type opioid receptor [5]", "result": 53.6, "unit": "nM"}, {"measurement": "IC50", "setting": "[6]", "result": 0.36, "unit": "nM"}]}, {"smiles": "N[C@@H](Cc1ccc(O)cc1)C(=O)N[C@@H]1C/C=C\\C[C@@H](NC(=O)[C@@H](N)Cc2ccc(O)cc2)C(=O)NCC(=O)N[C@@H](Cc2ccccc2)C(=O)NNC(=O)[C@H](Cc2ccccc2)NC(=O)CNC1=O.O=C(O)C(F)(F)F.O=C(O)C(F)(F)F", "values": [{"measurement": "MPE", "setting": "Mus musculus [7]", "result": "< 50", "unit": "%"}, {"measurement": "MPE", "setting": "Mus musculus [8]", "result": "< 50", "unit": "%"}]}, {"smiles": "N[C@@H](Cc1ccc(O)cc1)C(=O)N[C@@H]1C/C=C/C[C@@H](NC(=O)[C@@H](N)Cc2ccc(O)cc2)C(=O)NCC(=O)N[C@@H](Cc2ccccc2)C(=O)NNC(=O)[C@H](Cc2ccccc2)NC(=O)CNC1=O.O=C(O)C(F)(F)F.O=C(O)C(F)(F)F", "values": [{"measurement": "MPE", "setting": "Mus musculus [7]", "result": ">=50%"}, {"measurement": "MPE", "setting": "Mus musculus [8]", "result": ">=50%"}]}, {"smiles": "N[C@@H](Cc1ccc(O)cc1)C(=O)N[C@@H]1C/C=C\\C[C@@H](NC(=O)[C@@H](N)Cc2ccc(O)cc2)C(=O)NCC(=O)N[C@@H](Cc2ccccc2)C(=O)NNC(=O)[C@H](Cc2ccccc2)NC(=O)CNC1=O", "values": [{"measurement": "Ki", "setting": "[1]", "result": 495, "unit": "nM"}, {"measurement": "EC50", "setting": "[2]", "result": 1840, "unit": "nM"}, {"measurement": "EC50", "setting": "Mu-type opioid receptor [3]", "result": 19.6, "unit": "nM"}, {"measurement": "Ki", "setting": "[4]", "result": 7.3, "unit": "nM"}, {"measurement": "Ki", "setting": "Mu-type opioid receptor [5]", "result": 75.8, "unit": "nM"}, {"measurement": "IC50", "setting": "[6]", "result": 44.8, "unit": "nM"}]}]}
